## Apparent affinities of Ab-14 variants for a coronavirus HR2 peptide

From the AlphaSeq antibody data of Li et al. 2023 (doi:10.1038/s41467-023-39022-2), copy in the FLAb collection.

Target: peptide PDVDLGDISGINAS, taken from heptad repeat 2 (HR2) of SARS-CoV-2 spike.

Parent scFv Ab-14: VH joined to VL by the linker GGGGSGGGGSGGGGS. Changes lie in the heavy chain CDRs alone.
VH: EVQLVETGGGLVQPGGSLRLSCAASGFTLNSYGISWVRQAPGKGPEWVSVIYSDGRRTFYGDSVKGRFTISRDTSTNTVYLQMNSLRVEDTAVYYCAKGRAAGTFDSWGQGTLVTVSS
VL: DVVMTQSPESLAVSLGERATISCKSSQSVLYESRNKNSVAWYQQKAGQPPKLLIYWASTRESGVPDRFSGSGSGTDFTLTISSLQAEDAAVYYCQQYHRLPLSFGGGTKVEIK

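Phage display of a naive human antibody library on the peptide gave the parent. These sequences belong to a second round, designed from the earlier measurements on random variants of the parent. Their group label is 14H_GPLM_HC (GPLM: also part of the Gaussian process libraries; HC: hill climbing; a sequence that several methods proposed may carry one label only). The scFvs were displayed on barcoded MATa yeast, the peptide on MATalpha yeast. Binding brings cells together so that they mate, and sequencing counts the barcode pairs among the diploids. Scores were corrected for input abundance and mapped to Kd with protein pairs of known affinity run in the same pool. There are six technical replicates.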

Variants are written as CDR1, CDR2 and CDR3 of the heavy chain (limits as in the source). Parent: GFTLNSYGIS, VIYSDGRRTFYGDSVK, GRAAGTFDS.
Affinities are written as log10 Kd with Kd in nM; a lower number is a better binder.
Replicates are averaged; those with no signal do not enter the mean.
Where no diploid with the target was found in that replicate, the entry reads "nd": below detection, most likely a poor binder, though not proof of it.
Values of this round are not directly comparable with the first-round values of the same sequences.
The authors' rule: three or more of the six replicates give a measured affinity, fewer mean a poor binder.
As a blank, each scFv also met three strains without target: over all heavy chain designs, 1% of these pairings were detected, typically at 2.08 and seldom below 0.84. For each scFv, signals with the empty controls are counted beside the result, with their mean in brackets.

CDR-H1 | CDR-H2 | CDR-H3 | replicates, log10 nM | mean log10 Kd (nM) | control signals
GFNLNEYGIS | VIYSDGRRTFYADSVK | GRFAGTFDS | -0.37 0.95 0.01 -0.73 0.12 0.52 | 0.08 | 0/18
GFTLNDYGIS | VIYSDGRRTFYGDSVK | GRAALTFDV | nd nd nd nd nd nd | nd | 0/18
GFTLNEYGIS | VIYSDGRRTFYGDSVK | GRAAVTFDK | -0.57 -0.12 -0.19 -0.63 -0.60 -0.70 | -0.47 | 0/18
GFTLNSYGIS | VIYSDGRRTFYDDKVK | GQLAGTFDS | 1.07 1.19 0.95 0.86 0.91 0.99 | 0.99 | 0/18
GFTLNSYGIS | VIYADGRRTFYGDRVK | GRAAGTFKS | nd nd nd nd nd nd | nd | 0/18
GFTLNEMGIS | VIYSDGRRTFYTDSVK | GRFAGTFDS | 2.15 1.25 0.96 1.57 1.72 1.22 | 1.48 | 1/18 (2.06)
GFTLNDYGIS | VIYSDGRRTQYSDSVK | GRAAGKFDS | nd nd nd nd nd 2.27 | 2.27 | 0/18
GFYLNSYGIS | VIYSDGRRTFYDDSVK | GQVAGTFDS | 2.12 2.26 2.00 1.86 2.03 2.64 | 2.15 | 2/18 (2.30)
GFTLNEYGIS | VIYSDGRRTFYTDSVK | GRFAGTFDM | 0.78 1.71 1.01 0.89 0.73 1.28 | 1.06 | 0/18
GFSLNEYGIS | VIYSDGRRTFYDDSVK | GRFAGTFDS | nd nd nd nd nd nd | nd | 0/18
GFSINSYGIS | VIYSDGRRTFYSDSVK | GRAAGTFDS | 0.50 0.25 0.54 0.57 0.47 0.40 | 0.46 | 0/18
KFTLNSYGIS | VIYSDGRRTFYADSVK | GQLAGTFDS | 1.21 2.13 1.34 1.33 0.80 0.67 | 1.25 | 1/18 (2.53)
GFTLNDYGIS | VIYSDGRRTFYGDSVK | GRAAGTFVK | nd nd nd 2.51 nd nd | 2.51 | 0/18
GFTLNEYGIS | VIYSDGRRTFYGDSVK | GRFAGTFDW | nd nd nd nd nd nd | nd | 0/18
GFTLNDYGIS | VIYSDGRRTFYADSVK | GRMAGTFIS | nd nd nd nd nd nd | nd | 1/18 (2.86)
GFDLNSYGIS | VIYSDGRRTFYGDSVK | GREAGRFNS | nd nd nd nd nd nd | nd | 0/18
GFTLNQYGIS | VIYSDGRRTFYSDSVK | GTAAGTFDS | -0.60 -0.25 0.04 -0.42 -0.25 0.49 | -0.16 | 0/18
GFTLNMYGIS | VIYSDGRRTFYTDSVK | GRFAGTFDS | 0.46 -0.21 -0.09 0.25 0.13 0.41 | 0.16 | 1/18 (2.83)
GFTLNEYGIS | VIYSDGRRTFYGDSVK | GRAADTFWS | nd nd nd nd nd nd | nd | 0/18
GFTLNSYGIS | VIYSDGRRTFYSDSVK | GRVGGTFDT | 1.30 0.29 0.42 0.31 0.30 0.43 | 0.51 | 0/18
GFTLNSYGIS | VIYSDGQRTFYSDSVK | GRAGGTFDS | nd nd nd nd 2.13 nd | 2.13 | 0/18
GFSLNDYGIS | VIYSDGRRTFYGDSVK | GRAAGTFFS | nd nd nd nd nd nd | nd | 0/18
GFTLNQYGIS | VIYSDGRRTFYADSVK | GRNAGTFDS | 0.03 -0.15 -0.23 -0.74 0.20 -0.16 | -0.18 | 0/18
GFTLNSYGIS | VIYSDGLRTFYTDSVK | GQAAGTFDS | 1.35 1.01 1.17 0.57 1.52 1.12 | 1.12 | 0/18
GFTLNEYGIS | VIYSDGRRTFYADSVK | GRAAGTFIS | nd 0.62 1.34 nd 0.38 0.92 | 0.81 | 0/18
GFTLNRYGIS | VIYSDGRRTFYADSVK | GQLAGTFDS | 0.74 0.82 0.54 1.13 0.54 0.79 | 0.76 | 0/18
GFSLNQYGIS | VIYSDGRRTFYSDSVK | GRAAGIFDS | nd nd nd nd nd nd | nd | 0/18
GFTLNDYGIS | VIYSDGRRTFYGDSVK | GRMAGTFVS | nd nd nd nd nd nd | nd | 0/18
PFTLNSYGIS | VIYSDGRRTFYDDSVK | GQLAGTFDS | 1.82 1.20 1.38 1.48 0.84 nd | 1.34 | 1/18 (1.93)
GFTLNDYGIS | VIYSDGKRTFYSDSVK | GRAAGTFDS | 0.39 0.27 0.07 0.10 0.15 0.40 | 0.23 | 0/18
GFTLNDYGIS | VIYSDGRRTAYSDSVK | GRAAGTFDS | 0.19 0.33 0.10 -0.19 0.66 0.61 | 0.28 | 0/18
GFSLNEYGIS | VIYSDGRRTFYSDSVK | GRHAGTFDS | 1.21 0.71 0.34 0.81 1.14 0.68 | 0.81 | 0/18
GFTLNDYGIS | VIYSDGRRTFYSDSVK | GTAAGTFDS | 1.55 2.54 1.30 1.81 nd 1.53 | 1.75 | 0/18
GFTLNEYGIS | VIYSDGRRTFYSDSVK | GRAAGFFTS | nd nd nd nd nd nd | nd | 0/18
GFTLNEYGIS | VIYSDGRRTFYSDAVK | GRFAGTFDS | 0.14 0.07 -0.39 0.04 0.01 0.84 | 0.12 | 0/18
GFTLNEYGIS | VIYSDGRRTFYGDSVK | GRAAGTFEQ | 0.77 0.25 -0.08 0.77 0.04 0.97 | 0.45 | 1/18 (2.19)
GFTLNSYGIS | VIYSDGRRTFYSDSVK | GLVGGTFDS | 0.99 1.05 1.02 0.72 1.09 1.20 | 1.01 | 0/18
GFDLNSYGIS | VIYSDGRRTAYGDSVK | GRAAGTFNS | 1.19 0.71 0.66 1.00 1.14 0.90 | 0.93 | 0/18
GFELNEYGIS | VIYSDGRRTFYVDSVK | GRTAGTFDS | -0.04 0.01 -0.30 0.24 -0.07 0.31 | 0.02 | 0/18
GFTLNSYGIS | VIYADGRRTFYGDSVK | GLAAGTFKM | nd nd nd nd nd nd | nd | 1/18 (0.68)
GFELNQYGIS | VIYSDGRRTFYADSVK | GRAAGTFDS | 0.58 0.77 0.52 0.94 0.86 0.74 | 0.74 | 0/18
GFWLNDYGIS | VIYSDGRRTMYIDSVK | GRAAGTFDS | nd nd nd nd 0.31 nd | 0.31 | 0/18
GFTLNEYGIS | VIYSDGRRTFYSDSVK | GRAAVTFDS | nd nd nd nd nd nd | nd | 1/18 (2.08)
GFTLNDYGIS | VIYSDGRRTQYIDSVK | GKAAGTFDS | nd 0.71 nd nd nd nd | 0.71 | 0/18

Picked from the list: the 6 lowest averages where every replicate gave a value.

CDR-H1 | CDR-H2 | CDR-H3 | replicates, log10 nM | mean log10 Kd (nM) | control signals
GFTLNEYGIS | VIYSDGRRTFYGDSVK | GRAAVTFDK | -0.57 -0.12 -0.19 -0.63 -0.60 -0.70 | -0.47 | 0/18
GFTLNQYGIS | VIYSDGRRTFYADSVK | GRNAGTFDS | 0.03 -0.15 -0.23 -0.74 0.20 -0.16 | -0.18 | 0/18
GFTLNQYGIS | VIYSDGRRTFYSDSVK | GTAAGTFDS | -0.60 -0.25 0.04 -0.42 -0.25 0.49 | -0.16 | 0/18
GFELNEYGIS | VIYSDGRRTFYVDSVK | GRTAGTFDS | -0.04 0.01 -0.30 0.24 -0.07 0.31 | 0.02 | 0/18
GFNLNEYGIS | VIYSDGRRTFYADSVK | GRFAGTFDS | -0.37 0.95 0.01 -0.73 0.12 0.52 | 0.08 | 0/18
GFTLNEYGIS | VIYSDGRRTFYSDAVK | GRFAGTFDS | 0.14 0.07 -0.39 0.04 0.01 0.84 | 0.12 | 0/18